# Assay results: BindingDB's records for 24314397
# Protein sequences, listed by entry. Tags and fused reporters are not part of them.
# UniProt P11444, whole entry, looked up: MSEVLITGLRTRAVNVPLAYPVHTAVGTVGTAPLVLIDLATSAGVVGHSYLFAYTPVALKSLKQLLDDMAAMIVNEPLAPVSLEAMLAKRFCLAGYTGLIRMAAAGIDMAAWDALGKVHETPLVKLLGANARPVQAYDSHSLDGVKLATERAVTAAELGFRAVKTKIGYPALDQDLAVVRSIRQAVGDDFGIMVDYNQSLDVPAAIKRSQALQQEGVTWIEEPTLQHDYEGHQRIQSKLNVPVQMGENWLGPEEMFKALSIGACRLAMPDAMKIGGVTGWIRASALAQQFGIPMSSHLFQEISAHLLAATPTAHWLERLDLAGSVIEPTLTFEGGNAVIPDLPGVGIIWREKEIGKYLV
# Biological target: Mandelate racemase (Pseudomonas putida, UniProt P11444)
structure (smiles),measurement,value
O=C(O)C(O)(c1ccccc1)c1ccccc1,Ki,700 µM
